Measurements published in PMC11904594 (Current Research in Microbial Sciences, 2025).

System: 11 bacterial strains (S. aureus, P. aeruginosa, A. baumannii, K. pneumoniae, E. coli)
Test: Antimicrobial activity screening, summary over groups of strains
Format: cell-based
Conditions: 50 µg/ml screen; all A. baumannii strains

In the case of `CC[C@H](C)[C@H](NC(=O)[C@H](CCC(N)=O)NC(=O)[C@@H](NC(=O)[C@H](C)NC(=O)[C@H](CCC(N)=O)NC(=O)CNC(=O)[C@@H](NC(=O)[C@@H](NC(=O)[C@H](C)NC(=O)[C@@H](NC(=O)[C@H](C)N)C(C)C)C(C)C)C(C)C)[C@@H](C)O)C(=O)N[C@@H](C)C(=O)N[C@@H](CCCCN)C(=O)N[C@@H](CCCCN)C(=O)N[C@@H](CCCCN)C(=O)N[C@@H](CC(C)C)C(=O)N[C@@H](Cc1ccccc1)C(=O)N[C@@H](CCCCN)C(=O)N[C@@H](CCCCN)C(=O)N[C@H](C(=O)N[C@@H](CC(C)C)C(=O)N[C@@H](CCCCN)C(=O)N[C@@H](Cc1ccc(O)cc1)C(=O)N[C@@H](CC(C)C)C(=O)N[C@@H](CCCCN)C(=O)N[C@@H](CC(=O)O)C(=O)N[C@@H](CCC(=O)O)C(=O)N[C@@H](CC(C)C)C(=O)O)[C@@H](C)CC` [BP190], the “growth inhibition of A. baumannii strains” value is reported as “up to 75%”.
